Experiments:
[1] = system: NTBC189 (K. pneumoniae strain expressing TEM-OSBL(b), CTX-M-14, OXA-48(c)); assay: Meropenem potentiation, broth micro-dilution MIC, strain NTBC189; assay type: cell-based; conditions: MIC of meropenem with 4 µg/mL of the labelled compound, numeric
[2] = system: NTBC093 (E. cloacae strain expressing KPC-2, TEM-1); assay: Meropenem potentiation, broth micro-dilution MIC, strain NTBC093; assay type: cell-based; conditions: MIC of meropenem with 4 µg/mL of the labelled compound, banded

**Q.** Which “MIC mero + 4 µg/mL inhibitor” value [1] does the source give for `NC(=O)[C@@H]1CC[C@@H]2CN1C(=O)N2OS(=O)(=O)O` [Avibactam, avibactam] here?
**A.** 0.25 (A) µg/mL

**Q.** How did the “MIC mero + 4 µg/mL inhibitor” value [2] turn out when `O=C1N2C[C@@H](CC[C@H]2C(F)(F)F)N1OS(=O)(=O)[O-].[Na+]` [Example 1, Sodium (2S, 5R)-7-oxo-2-(trifluoromethyl)-1,6-diazabicyclo[3.2.1]octan-6-yl sulfate] was run?
**A.** (A) (MIC < 1 µg/mL (A))

**Q.** With `O=C1N2C[C@@H](CC[C@H]2C(F)F)N1OS(=O)(=O)[O-].[Na+]` [Example 2, Sodium (2S, 5R)-7-oxo-2-(difluoromethyl)-1,6-diazabicyclo[3.2.1]octan-6-yl sulfate] as the molecule, how does the “MIC mero + 4 µg/mL inhibitor” value [2] read?
**A.** (A) (MIC < 1 µg/mL (A))
